Laboratory results as given in PubChem BioAssay AID1645853 (Buhrlage Lab, Dana-Farber Cancer Institute and Novartis …, 2021).
The entries are a selection whose mix differs from that of the whole data set. Some tests of the compounds listed are not included; inactive here does not mean inactive elsewhere. Activity calls are given as the source filed them. Cut-off read from the data, not from the text of the source: active = inhibition above about 30%; inactive = the rest.

Amino acid sequences for entries named in this document (tags omitted).
UniProt P40818, whole entry: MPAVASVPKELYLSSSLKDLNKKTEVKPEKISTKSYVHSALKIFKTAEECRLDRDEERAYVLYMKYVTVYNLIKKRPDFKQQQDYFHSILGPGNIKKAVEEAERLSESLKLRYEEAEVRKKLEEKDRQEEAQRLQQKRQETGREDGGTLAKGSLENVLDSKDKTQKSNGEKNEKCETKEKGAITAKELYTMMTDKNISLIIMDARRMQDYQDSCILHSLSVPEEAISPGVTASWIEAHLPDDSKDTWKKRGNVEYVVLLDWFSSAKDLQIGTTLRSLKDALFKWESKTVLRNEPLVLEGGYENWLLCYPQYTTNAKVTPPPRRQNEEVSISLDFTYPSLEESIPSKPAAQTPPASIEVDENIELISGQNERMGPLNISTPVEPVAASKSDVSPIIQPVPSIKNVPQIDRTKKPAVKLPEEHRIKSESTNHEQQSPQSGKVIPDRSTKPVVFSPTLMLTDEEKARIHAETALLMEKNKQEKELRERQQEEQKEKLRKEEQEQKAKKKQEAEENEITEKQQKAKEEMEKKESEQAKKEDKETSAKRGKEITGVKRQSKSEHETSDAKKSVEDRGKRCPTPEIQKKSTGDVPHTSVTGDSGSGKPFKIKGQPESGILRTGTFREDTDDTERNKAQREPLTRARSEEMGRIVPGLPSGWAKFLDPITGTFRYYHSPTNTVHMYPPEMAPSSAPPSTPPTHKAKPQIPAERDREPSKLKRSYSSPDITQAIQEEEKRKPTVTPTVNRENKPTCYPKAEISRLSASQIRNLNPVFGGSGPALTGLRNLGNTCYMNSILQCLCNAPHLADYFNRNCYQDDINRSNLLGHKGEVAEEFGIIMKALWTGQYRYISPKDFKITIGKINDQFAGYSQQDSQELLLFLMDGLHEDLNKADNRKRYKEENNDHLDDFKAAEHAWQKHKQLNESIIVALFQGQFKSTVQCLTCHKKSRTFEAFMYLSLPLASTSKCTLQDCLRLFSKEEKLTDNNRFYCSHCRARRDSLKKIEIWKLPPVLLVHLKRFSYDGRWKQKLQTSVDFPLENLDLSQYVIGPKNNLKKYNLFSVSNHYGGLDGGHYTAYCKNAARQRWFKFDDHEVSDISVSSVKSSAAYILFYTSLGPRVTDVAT

These compounds were tested against Ubiquitin carboxyl-terminal hydrolase 8 (Homo sapiens) (UniProt P40818) (assay: inhibitors of human USP8 deubiquitinase (AID 1645853)). Details: purified USP8, Ub-rhodamine cleavage fluorescence, 30 min; at 20 µM; stronger effect = higher value.

For `O=C(NCC1(N2CCCCC2)CCCCC1)c1ccc2ccccc2c1`, which inhibition is on record?
Its inhibition is inactive: -7.38%.

With `O=C(NCC1(N2CCOCC2)CCCCC1)c1ccccc1F` as the compound, how does the inhibition read?
Its inhibition is inactive: 0.271%.

`Cc1c(C(=O)NCC2(N(C)C)CCCCC2)oc2ccccc12` was tested. Which inhibition did it give?
The inhibition was inactive: 8.31%.

Which inhibition does the source give for `Cc1c(C(=O)NCC2(N(C)C)CCCCC2)oc2ccc(F)cc12` here?
The inhibition was inactive: 13.2%.

How did the inhibition turn out when `COc1cccc(C(=O)NCC2(N3CCCCC3)CCCCC2)c1` was run?
Its inhibition is inactive: -19.5%.

How did the inhibition turn out when `COc1ccc(C(=O)NCC2(N3CCOCC3)CCCCC2)cc1` was run?
Its inhibition is inactive: -2.64%.

For `O=C(NCC1(N2CCCCC2)CCCCC1)c1ccc2c(c1)OCCO2`, which inhibition is on record?
Its inhibition is inactive: 15.4%.
